# Ab-14 heavy chain CDR variants: yeast mating affinities

Values reported by Li et al. 2023, doi:10.1038/s41467-023-39022-2 (FLAb copy).

Binding partner: SARS-CoV-2 spike HR2 peptide, sequence PDVDLGDISGINAS.

Ab-14 is the parent antibody, in scFv form: VH, then a (GGGGS)3 linker, then VL. The light chain is unchanged in all variants.
VH: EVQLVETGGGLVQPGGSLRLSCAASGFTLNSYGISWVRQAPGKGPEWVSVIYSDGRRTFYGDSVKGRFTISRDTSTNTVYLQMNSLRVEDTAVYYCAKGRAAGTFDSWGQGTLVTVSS
VL: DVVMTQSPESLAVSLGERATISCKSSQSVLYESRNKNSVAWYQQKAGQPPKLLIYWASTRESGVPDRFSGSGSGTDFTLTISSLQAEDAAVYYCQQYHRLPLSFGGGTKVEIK

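Phage display of a naive human antibody library on the peptide gave the parent. Designed CDR sequences, proposed from the first random library and measured here. Their group label is 14H_GP_HC (GP: Gaussian process model; HC: hill climbing; a sequence that several methods proposed may carry one label only). The scFvs were displayed on barcoded MATa yeast, the peptide on MATalpha yeast. After mating in shaken culture at 30 °C for 16 h, diploids were selected and their barcode pairs sequenced. The ratio of observed to expected reads was calibrated, replicate by replicate, on BCL2-family standards whose Kd was known from biolayer interferometry. Each pool was mated in six replicate cultures.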

Positions count from residue 1 of the parent VH; T28G puts G in place of T. Affinities are written as log10 Kd with Kd in nM; a lower number is a better binder. Replicates are averaged; those with no signal do not enter the mean. A pair that was not seen in that replicate is written "ND"; this usually means weak binding, but a binder can also be missed. Of ten entries with the parent sequence, four were seen in most replicates (averages 0.34 to 2.37), three in one and three in none, so single entries are noisy. A sequence measured in both rounds can read differently, since the two assays cover different ranges. The authors' rule: three or more of the six replicates give a measured affinity, fewer mean a poor binder. Background: pairings of all heavy chain designs with three empty control strains gave a value in 1% of cases (median 2.08, 5th percentile 0.84). Values in that range, when seen in few replicates, are hard to tell from nonspecific mating. The control count says in how many pairings with the empty strains this scFv gave a signal, with their mean in brackets.

| # | changes | log10 Kd, replicates | log10 Kd (nM), mean | signal with controls |
|---|---|---|---|---|
| 1 | T28G/S31E/G61M/A101F | 1.33 / 1.42 / 1.32 / 1.43 / 1.21 / 0.99 | 1.28 | 0 of 18 |
| 2 | T28S/S31E/G103L/S107E | ND / ND / 2.85 / 4.83 / ND / ND | 3.84 | 2 of 18 (2.60) |
| 3 | S31D/F59M/G61I/T104Q | ND / ND / ND / ND / ND / ND | ND | 1 of 18 (1.46) |
| 4 | S31D/G61A/A101Q/D106I | ND / ND / ND / ND / ND / ND | ND | 0 of 18 |
| 5 | G26K/T28G/S31E/A101C | ND / 0.22 / -0.11 / 0.14 / 1.06 / 0.41 | 0.35 | 0 of 18 |
| 6 | G26L/N30E/S53A | 1.38 / 1.33 / 1.28 / 3.46 / 1.62 / 0.40 | 1.58 | 0 of 18 |
| 7 | T28S/S31E/G61T/S63D/R100E/D106K | 0.10 / 0.23 / 0.06 / -0.13 / 0.18 / 0.16 | 0.10 | 0 of 18 |
| 8 | G61D/S63N/R100Q/A101T | 1.84 / 1.81 / 1.27 / 0.87 / 1.40 / 0.89 | 1.35 | 0 of 18 |
| 9 | T28D/G61D/T104H/D106N | ND / ND / ND / ND / ND / ND | ND | 0 of 18 |
| 10 | T28S/S31E/R100N/S107R | 0.38 / 0.08 / -0.04 / -0.37 / -0.31 / -0.09 | -0.06 | 1 of 18 (0.91) |
| 11 | F27K/S31E/S107L | ND / ND / ND / ND / ND / ND | ND | 0 of 18 |
| 12 | T28D/A101I/D106W | ND / 2.04 / ND / ND / ND / ND | 2.04 | 2 of 18 (1.45) |
| 13 | T28W/S31D/G61H | 1.06 / 1.49 / 1.21 / 0.71 / 0.88 / 1.12 | 1.08 | 0 of 18 |
| 14 | S31E/G61I/A101I | 0.75 / 0.78 / 0.98 / 1.28 / 0.59 / 0.98 | 0.89 | 0 of 18 |
| 15 | G61S/S63R/R100Q/A101E | ND / 0.41 / 1.53 / 0.50 / 0.70 / 0.22 | 0.67 | 0 of 18 |
| 16 | T28S/S31E/R100H/S107N | ND / ND / ND / ND / ND / ND | ND | 0 of 18 |
| 17 | T28D/T104H/D106Y | ND / ND / ND / ND / ND / ND | ND | 0 of 18 |
| 18 | T28S/S31D/S107I | 0.65 / -0.13 / -0.24 / -0.04 / 0.29 / 0.12 | 0.11 | 0 of 18 |
| 19 | T28Q/S31D/G61Q/D106I | ND / ND / ND / ND / ND / ND | ND | 0 of 18 |
| 20 | T28S/G103A/S107Q | ND / ND / ND / ND / ND / ND | ND | 1 of 18 (2.48) |
| 21 | N30E/G61T/R100Q | 0.68 / 1.11 / 1.07 / ND / 0.13 / 0.73 | 0.74 | 0 of 18 |
| 22 | T28D/S31E/S107Q | 1.58 / ND / ND / ND / ND / 1.44 | 1.51 | 0 of 18 |
| 23 | S31D/S53A/D106K | ND / 1.35 / 2.10 / 1.83 / 2.11 / 1.52 | 1.78 | 1 of 18 (1.93) |
| 24 | T28H/S31D/G61I/A101E | 0.41 / -0.20 / ND / 1.25 / 0.40 / ND | 0.47 | 0 of 18 |
| 25 | T28D/S63Q/T104H/D106N | ND / ND / ND / ND / ND / ND | ND | 0 of 18 |
| 26 | G26K/S31E/A101C | ND / ND / ND / ND / ND / ND | ND | 0 of 18 |
| 27 | N30D/G61V | 0.22 / 0.95 / ND / ND / ND / ND | 0.58 | 0 of 18 |
| 28 | T28S/S31W/G61I/A101Q | ND / ND / ND / ND / ND / ND | ND | 0 of 18 |
| 29 | S31E/D106H/S107T | 0.95 / 1.61 / 0.65 / 0.83 / 0.57 / 0.93 | 0.92 | 0 of 18 |
| 30 | F27Y/S31E/G103V/S107Q | ND / ND / ND / ND / ND / ND | ND | 0 of 18 |
| 31 | G26K/S31E/G61A/A101C | ND / ND / 1.36 / ND / 1.24 / 2.40 | 1.67 | 0 of 18 |
| 32 | T28D/S31L/G61D/R100Q | 1.29 / 1.43 / 1.47 / 2.12 / 2.37 / 1.60 | 1.71 | 1 of 18 (0.87) |
| 33 | S31D/G61K/D106W | ND / ND / ND / ND / ND / ND | ND | 0 of 18 |
| 34 | G61S/A101V/A102G/S107V | 2.52 / 1.29 / 1.75 / 1.48 / 1.59 / 1.35 | 1.66 | 0 of 18 |
| 35 | T28V/S31E/S53A/R100K | 0.17 / -0.12 / -0.09 / -0.11 / -0.24 / -0.17 | -0.09 | 0 of 18 |
| 36 | T28L/S31D/G61K/R100H | 1.20 / 0.34 / 0.46 / 0.49 / 0.68 / 1.16 | 0.72 | 0 of 18 |
| 37 | N30E/G61D/R100Q/A101S | 1.97 / ND / 1.44 / ND / 2.14 / 1.56 | 1.78 | 0 of 18 |
| 38 | T28H/S31D/G61D/A101L | 0.24 / 0.30 / 0.13 / 0.74 / 0.69 / 0.73 | 0.47 | 0 of 18 |
| 39 | S31E/G61T/A101T/D106T | 1.52 / 1.27 / 0.78 / 0.83 / 0.61 / 1.00 | 1.00 | 1 of 18 (2.13) |
| 40 | T28D/Y32F/R100Q/A101L | 0.75 / 0.42 / 0.92 / 0.67 / 0.40 / 1.41 | 0.76 | 0 of 18 |
| 41 | G61D/R100Q/A101E/S107D | ND / ND / ND / ND / ND / ND | ND | 0 of 18 |
| 42 | T28P/S31E/R100G | ND / ND / ND / ND / ND / ND | ND | 0 of 18 |

Extract of 6 entries:

changes	log10 Kd, replicates	log10 Kd (nM), mean	signal with controls
N30E/G61D/R100Q/A101S	1.97 / ND / 1.44 / ND / 2.14 / 1.56	1.78	0 of 18
T28L/S31D/G61K/R100H	1.20 / 0.34 / 0.46 / 0.49 / 0.68 / 1.16	0.72	0 of 18
S31E/D106H/S107T	0.95 / 1.61 / 0.65 / 0.83 / 0.57 / 0.93	0.92	0 of 18
N30E/G61T/R100Q	0.68 / 1.11 / 1.07 / ND / 0.13 / 0.73	0.74	0 of 18
T28W/S31D/G61H	1.06 / 1.49 / 1.21 / 0.71 / 0.88 / 1.12	1.08	0 of 18
T28S/S31E/R100N/S107R	0.38 / 0.08 / -0.04 / -0.37 / -0.31 / -0.09	-0.06	1 of 18 (0.91)